# Antibody variant affinities, Ab-14 light chain, assay B

The target is the same throughout: PDVDLGDISGINAS, from the HR2 region of SARS-CoV-2 spike.

Parent: Ab-14, a human scFv built as VH, a 15-residue (Gly4Ser)3 linker, VL. Only the CDRs of the light chain vary.
VH: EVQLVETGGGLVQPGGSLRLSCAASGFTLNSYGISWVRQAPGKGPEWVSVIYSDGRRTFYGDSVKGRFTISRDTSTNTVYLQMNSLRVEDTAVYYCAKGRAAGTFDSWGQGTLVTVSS
VL: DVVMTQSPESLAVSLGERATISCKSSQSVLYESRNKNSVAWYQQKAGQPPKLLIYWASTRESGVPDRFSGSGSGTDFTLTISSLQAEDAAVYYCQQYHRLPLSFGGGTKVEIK

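The parent was found by panning a naive human phage display library on the peptide. This is the validation round: designs drawn from the data on random variants, tested in the same kind of assay. Group labels follow the data file (Ctrl: baseline library sampled from a position-specific scoring matrix, with some repeated check sequences; En: ensemble of fine-tuned language models; GP: Gaussian process model; HC: hill climbing; Gen: genetic algorithm; Gibbs: Gibbs sampling; a sequence that several methods proposed may carry one label only). The assay is AlphaSeq: two haploid yeast populations carry antibody and antigen on their surface. Binding brings cells together so that they mate, and sequencing counts the barcode pairs among the diploids. Read counts were normalised to the haploid input and turned into Kd by a linear fit to BCL2-family pairs of known affinity, for each replicate. The assay was run in six technical replicates.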

The parent's light chain CDRs are KSSQSVLYESRNKNSVA, WASTRES, QQYHRLPLS; each variant's own CDRs replace them letter for letter. The Kd shown is the geometric mean over detected replicates; a lower Kd is a better binder. A pair that was not seen in any replicate is written "nd"; this usually means weak binding, but a binder can also be missed. Background: pairings of all light chain designs with three empty control strains gave a value in 4% of cases (median 430 nM, 5th percentile 38 nM). Values in that range, when seen in few replicates, are hard to tell from nonspecific mating. The range of this assay differs from that of the first round, and the authors advise against merging the two. In the paper, a design with two or fewer of six values counts as a poor binder.

Result nd (0 of 6 replicates), variant QIEFEDVQYTANEQAVA | EMNQRMQ | QQYFHLPLG [En_Gibbs].
Result 1.8 nM (6 of 6 replicates), variant KSSISYLYESRNHNSVA | EASTRES | QQYHRLPLS [GP_HC].
Result 1.4 nM (6 of 6 replicates), variant NIYQAMHTLSQMKDNVA | DVNERGM | QQYFRLPLS [En_Gen].
Result 10 nM (3 of 6 replicates), variant KSEQSVLYESRNKNSVA | WASTRES | QQYYRLPLS [Ctrl].
Result 750 pM (6 of 6 replicates), variant KLQMMVEMESRNKNSVA | SASTRLS | QQYHRLPLS [GP_Gibbs].
Result 620 pM (6 of 6 replicates), variant KLQQSVLVESRNKNSVA | NASTRES | QQYHRLPLS [GP_Gen].
Result 15 nM (6 of 6 replicates), variant KVSMSVLYESRVKNSVA | EAVQRES | QQYHRLPLS [GP_Gibbs].
Result 51 nM (6 of 6 replicates), variant KSSQLVLYESRNKNSVA | MASIRES | QQYHRLPLS [Ctrl].
Result 5.0 nM (6 of 6 replicates), variant KFPQSVLYESRNKNSVA | WASTRES | QQYHRLPLS [Ctrl].
Result 11 nM (6 of 6 replicates), variant MLLQSTMYGERARNSVA | HASTRED | QQYHRLPLI [En_HC].
Result 140 nM (6 of 6 replicates), variant KMELYTQQGNLPRNSIA | AATMRWE | QQYSHIPLM [En_Gibbs].
Result 2.8 nM (6 of 6 replicates), variant KWEYSVLGESRNKNAVA | SASQREQ | QQYHRLPLS [GP_Gibbs].
Result 13 nM (6 of 6 replicates), variant TIGQMFWGESRNRNSVA | QASTRES | QSYDRLPLS [En_HC].
Result 2.7 nM (6 of 6 replicates), variant KMSQSVWYEQRNFNSVA | NGSTREQ | QQYHRLPLS [GP_Gibbs].
Result 23 nM (6 of 6 replicates), variant KLYQRGEGSQKVDRSIA | EMQTRCE | QSYQRLPLS [En_Gibbs].
Result 1.9 nM (6 of 6 replicates), variant GFSDQITEQIAHANSIA | DRDERDV | QQYSRLPLI [En_Gibbs].
Result 67 nM (6 of 6 replicates), variant MVTMELRYGDEWQNPIA | EASHLEA | QQYDHLPLG [En_Gibbs].
Result 17 nM (6 of 6 replicates), variant KIQDFLGTLMEQINSIA | NSEEIVQ | QSYFRLPLS [En_Gibbs].
Result 3.4 nM (6 of 6 replicates), variant KSSISYLYESRNENSVA | EASTREK | QQYHRLPLS [GP_HC].
Result 100 nM (3 of 6 replicates), variant KSSQSVLYESVNKNSVA | WASTRES | QQYHRKPLS [Ctrl].
Result 4.2 nM (6 of 6 replicates), variant MLLQSTMYGERNRNSVA | HASTRED | QQYNRLPLI [En_HC].
Result 6.0 nM (6 of 6 replicates), variant KLNQSVLYESRNKNSVA | WGSTRES | QQYHHLPLS [Ctrl].
Result 6.0 nM (6 of 6 replicates), variant KLSQQMLYESRNKNSVA | NASLRLS | QCYHRLPLS [GP_Gibbs].
Result 1.0 nM (6 of 6 replicates), variant KSSISVLYESENKNSVA | EASTRES | QQYHRLPLS [GP_HC].
Result 560 pM (6 of 6 replicates), variant KLDQSVLYESRNKNSVA | NASTREQ | QQYHRLPLS [GP_Gen].
Result 49 nM (6 of 6 replicates), variant KISQSILFMSGLKNAIA | QMEMREE | QQYHRLPLS [En_HC].
Result 12 nM (6 of 6 replicates), variant NLVEMEGTNQTKGGNIA | SVDQRMS | QQYQRLPLI [En_Gibbs].
Result 1.3 nM (6 of 6 replicates), variant KVSQSMEYQSRNKNNVA | NASTREQ | QSYHRLPLS [GP_Gibbs].
Result 1.4 nM (6 of 6 replicates), variant KSQQSVLYESRNKNSVA | HASTRED | QQYGRLPLS [GP_HC].
Result 5.6 nM (6 of 6 replicates), variant TLYGLSMSMSKNKNNVA | EMSTREP | QQYDRLPLI [En_Gen].
Result 9.4 nM (6 of 6 replicates), variant TISQSWNMTSRGKNSVA | QAEMREK | QQYDRLPLS [En_HC].
Result 4.6 nM (6 of 6 replicates), variant KSSCAVYYGDRNKMSVA | DASTRES | QQYHRLPLS [GP_Gibbs].
Result 970 pM (6 of 6 replicates), variant KLRTSVPYESRNKNSVA | SASTRES | QQYHRLPLS [GP_Gibbs].
Result 2.4 nM (6 of 6 replicates), variant KQSMSVLYESRNKNSVA | WASTRES | QQYHRLPLS [Ctrl].
Result 1.0 µM (3 of 6 replicates), variant SLAFTLHFNQSGGSNVA | EVQMREQ | QQYFRLPLG [En_Gibbs].
Result 9.6 nM (6 of 6 replicates), variant KISYMGEHFSTNHSAIA | QASTREQ | QQYYRLPIS [En_HC].
Result 730 pM (6 of 6 replicates), variant KLPQSSLYESRNKNSVA | NASTRES | QQYHRLPLS [GP_Gen].
Result nd (0 of 6 replicates), variant IVSQLMIWGMHAKNSIA | EANTRIN | QQYDRLPLF [En_Gen].
Result 28 nM (6 of 6 replicates), variant NMFGGLNFNDINHQAIA | SVDEREK | QQYHRLPLQ [En_Gibbs].
Result 4.3 nM (6 of 6 replicates), variant KISQSVLYESRNKNSVA | WASTRES | QDYHRLPLS [Ctrl].
Result nd (0 of 6 replicates), variant KSSQSVLYESRNKNSVA | WASTRES | EQYVRLPLS [Ctrl].
Result 660 pM (6 of 6 replicates), variant KSSQSWLYESRNKNSVA | NASQRES | QDYHRLPLS [GP_Gen].
Result 420 pM (6 of 6 replicates), variant KQSQSVLMEWRNKNSVA | DASTRES | QQYHRLPLS [GP_HC].
Result 10 nM (6 of 6 replicates), variant KISMMSTIESIMHNSVA | QTSEREN | QQYDRLPLS [En_HC].
Result 690 pM (6 of 6 replicates), variant KSMQSELDENRNKNSVA | SASTRLS | QQYHRLPLS [GP_Gibbs].
Result 2.9 nM (6 of 6 replicates), variant KWQNDSLFMGQYMNNIA | NTSLRTE | QQYYRLPLT [En_Gibbs].
Result 81 nM (6 of 6 replicates), variant KSSQSELYESRDANSVA | RASTRES | QLYHMLPLR [Ctrl].
Result 1.4 µM (1 of 6 replicates), variant IVSQLMIWGMHLKNSIA | EAQTRVN | QQYDRLPLM [En_Gen].
Result 5.2 nM (6 of 6 replicates), variant QFSQSVLYESRNKNSVA | WASTRES | QQYHRLPLS [Ctrl].

Picked from the list: the 5 lowest averages where every replicate gave a value.

The variant KQSQSVLMEWRNKNSVA | DASTRES | QQYHRLPLS [GP_HC] showed 420 pM (6 of 6 replicates).
The variant KLDQSVLYESRNKNSVA | NASTREQ | QQYHRLPLS [GP_Gen] showed 560 pM (6 of 6 replicates).
The variant KLQQSVLVESRNKNSVA | NASTRES | QQYHRLPLS [GP_Gen] showed 620 pM (6 of 6 replicates).
The variant KSSQSWLYESRNKNSVA | NASQRES | QDYHRLPLS [GP_Gen] showed 660 pM (6 of 6 replicates).
The variant KSMQSELDENRNKNSVA | SASTRLS | QQYHRLPLS [GP_Gibbs] showed 690 pM (6 of 6 replicates).

Data: MIT Lincoln Laboratory AlphaSeq set, Li et al. 2023, doi:10.1038/s41467-023-39022-2, as distributed in FLAb.